# Organism: Homo sapiens
# Assay: Selectivity ratio of IC50 for recombinant tPA to IC50 for human uPA
compound,measurement,value
N=C(N)c1ccc2cc(C(=O)Nc3ccc(CN)cc3)ccc2c1,Ratio IC50,> 50

# From ChEMBL document CHEMBL1944597, “Synthesis and evaluation of non-basic inhibitors of urokinase-type plasminogen activator (uPA)” (Bioorg Med Chem, 2012)
